# From patent US20250205178A1, “METHODS AND COMPOSITIONS FOR INHIBITING VIRAL […]” (ARIZONA BOARD OF REGENTS ON BEHALF OF THE UNIVERSITY OF …, priority 2022, published 2025)
# System: ZIKV (ZIKA-Venus)
row,SMILES,EC50
1,CC(=O)c1cc(O)c2ccccc2c1O [NSC 111552],1.4 µM
2,COCCn1c2nc(=O)n(-c3ccccc3)c(=O)c-2nc2ccccc21 [NSC 288387],0.2 µM
